This note sets out measurements from PubChem BioAssay (NCI).

Assay in all cases: NCI-60 one-dose screen, 48 h (100 = growth as untreated, 0 = no growth, -100 = all killed)
Holding throughout (conditions): 10 µM

The subject of experiment [1] is SK-MEL-2 melanoma.
For experiment [2], the system named is EKVX NSCLC.
Experiment [3] deals with SN12C renal.
The test system of experiment [4] is UO-31 renal.
For experiment [5], the system named is TK-10 renal.
In experiment [6] the test system is ACHN renal.
Experiment [7] relates to CAKI-1 renal.
Experiment [8] relates to A498 renal.
The subject of experiment [9] is HL-60(TB) leukemia.
Experiment [10] relates to CCRF-CEM leukemia.
In experiment [11] the test system is MOLT-4 leukemia.
Experiment [12] concerns SR leukemia.
Experiment [13] deals with RPMI-8226 leukemia.
The test system of experiment [14] is OVCAR-8 ovarian.
Experiment [15] concerns OVCAR-5 ovarian.
Experiment [16] relates to OVCAR-4 ovarian.
For experiment [17], the system named is SK-OV-3 ovarian.
Experiment [18] has as its system IGROV1 ovarian.
In experiment [19] the test system is OVCAR-3 ovarian.
Experiment [20] concerns HS 578T breast.

The list shows a part of the results, in another mix than the full data.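 Results are percent growth after 48 hours of single-concentration exposure. 100 means growth as in untreated cells, lower positive values show inhibition; negative values down to -100 show cell death.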 Activity calls are given as the source filed them. The calls were made as follows: active = growth percent below 10; inactive = the rest.

On to `O=C(O)Cc1c[nH]c2ccc(N(CCCl)CCCl)cc12`, for which the growth was inactive: 122% in [1]; inactive: 103% in experiment [2]; inactive: 89.9% in experiment [3]; inactive: 102% in experiment [4]; inactive: 108% in experiment [5]; inactive: 100% in [6]. Also, the growth in experiment [7] was inactive: 77.7%; in [8], inactive: 90.4%; in experiment [9], inactive: 127%; in experiment [10], inactive: 90.2%; in experiment [11] it was inactive: 103%; in experiment [12], inactive: 86.1%. In addition, the growth in [13] was inactive: 99.6%; in [14], inactive: 112%; in [15], inactive: 98.4%; in [16], inactive: 111%; in experiment [17] it was inactive: 96.6%; in experiment [18], inactive: 92.6%. The values for the growth in experiment [19] and in [20] were inactive: 108% and inactive: 96.9%, respectively.
Consider `NC(Cc1ccccc1N(CCCl)CCCl)C(=O)O` (centres undefined), for which the growth in experiment [1] is inactive: 76.4%; in experiment [2], inactive: 89.9%; in experiment [3], inactive: 69.2%; in experiment [4], inactive: 88.9%; in experiment [5], inactive: 99.2%; in experiment [6], inactive: 57.2%. Moreover, the growth is inactive: 24.7% in [7]; inactive: 77.1% in experiment [8]; inactive: 12.2% in experiment [9]; inactive: 10.7% in [10]; inactive: 41.1% in experiment [11]; active: 0.5% in experiment [12]. The growth in [13] was inactive: 63.6%; in experiment [14], inactive: 84.2%; in [15], inactive: 105%; in experiment [16] it was inactive: 96.3%; in [17], inactive: 76.5%; in experiment [19] it was inactive: 103%. Also, the growth in experiment [20] is inactive: 105%.
Consider `COc1cc(N(CCCl)CCCl)cc(OC)c1OC`, for which the growth in [1] is inactive: 101%; in [2], inactive: 98.3%; in experiment [3], inactive: 86.9%; in experiment [4] it was inactive: 87.7%; in [5], inactive: 114%; in [6], inactive: 93.8%. The growth in experiment [8] was inactive: 102%; in [9] it was inactive: 98.7%; in experiment [10], inactive: 81.2%; in experiment [11], inactive: 75.7%; in [12] it was inactive: 72.1%; in experiment [13] it was inactive: 88.1%. Also, the growth in experiment [14] is inactive: 81.5%; in [15] it was inactive: 116%; in experiment [16], inactive: 120%; in experiment [17], inactive: 90.1%; in experiment [18], inactive: 87.9%; in [19], inactive: 88.3%. For the same compound, the growth in [20] was inactive: 103%.
Regarding `BrCCN(CCBr)c1ccc2c(c1)Cc1ccccc1-2`, the growth was inactive: 46.9% in [1]; inactive: 63% in experiment [2]; inactive: 36.3% in experiment [3]; inactive: 25.7% in experiment [4]; inactive: 70.2% in experiment [5]; inactive: 11% in experiment [6]. The growth in experiment [7] was active: -2.92%; in experiment [8], inactive: 17.5%; in experiment [9] it was active: 8.5%; in [10], inactive: 19.7%; in experiment [11], active: 8.3%; in experiment [12], active: -8.12%. Moreover, the growth is inactive: 24% in experiment [13]; inactive: 31.1% in [14]; inactive: 76.2% in experiment [15]; inactive: 59.9% in experiment [16]; inactive: 44.2% in experiment [17]; inactive: 41.1% in experiment [18]. The growth was inactive: 35.1% in experiment [19] and inactive: 91.6% in experiment [20].
For the compound `Cc1ccc(NC2(C(N)=O)CCNCC2)cc1`, the growth in experiment [1] was inactive: 106%; in experiment [2] it was inactive: 113%; in [3] it was inactive: 83.9%; in experiment [4], inactive: 82.6%; in [5] it was inactive: 106%; in experiment [6] it was inactive: 103%. In addition, the growth is inactive: 103% in experiment [7]; inactive: 114% in experiment [8]; inactive: 145% in experiment [9]; inactive: 100% in [10]; inactive: 104% in experiment [11]; inactive: 123% in experiment [12]. Further, the growth in [13] is inactive: 95.7%; in experiment [14], inactive: 98.6%; in experiment [15] it was inactive: 94.1%; in [16], inactive: 102%; in experiment [17], inactive: 97.5%; in experiment [18], inactive: 102%. Moreover, the growth in [19] was inactive: 110%; in experiment [20] it was inactive: 97.3%.
In the case of `CC(=O)N(c1ccccc1)C1CCNCC1`, the growth in experiment [1] was inactive: 100%; in [2], inactive: 96.8%; in experiment [3], inactive: 111%; in experiment [4] it was inactive: 91%; in [5], inactive: 106%; in [6] it was inactive: 122%. Also, the growth was inactive: 101% in [7]; inactive: 88.4% in [8]; inactive: 109% in [9]; inactive: 65.3% in [10]; inactive: 94.5% in [11]; inactive: 115% in experiment [12]. Also, the growth was inactive: 103% in [13]; inactive: 111% in experiment [14]; inactive: 110% in experiment [15]; inactive: 118% in [17]; inactive: 122% in experiment [18]; inactive: 124% in experiment [19]. In addition, the growth in experiment [20] was inactive: 93.2%.
With `N#CC1(Nc2ccc(Cl)cc2)CCN(Cc2ccccc2)CC1`, the growth is inactive: 89.2% in [1]; inactive: 76.1% in [2]; inactive: 69.5% in experiment [3]; inactive: 60.8% in experiment [4]; inactive: 73.1% in experiment [5]; inactive: 53.1% in experiment [6]. For the same compound, the growth in [7] was inactive: 38.6%; in experiment [9], inactive: 63.6%; in [11], inactive: 75.7%; in experiment [13], inactive: 76.9%; in experiment [14], inactive: 75.7%; in [15], inactive: 59.5%. Besides, the growth in [16] was inactive: 78%; in experiment [17] it was inactive: 99.6%; in experiment [18], inactive: 67.3%; in [19], inactive: 88.4%; in experiment [20], inactive: 90.1%.
As for `N#CC(C#N)=Cc1ccc(N(CCCl)CCCl)cc1`, the growth is inactive: 101% in [1]; inactive: 92.9% in [2]; inactive: 84.7% in experiment [3]; inactive: 81.3% in experiment [4]; inactive: 98.2% in [5]; inactive: 83.2% in experiment [6]. Further, the growth in experiment [7] was inactive: 53.1%; in experiment [8], inactive: 105%; in [9] it was inactive: 65.4%; in [10] it was inactive: 69.2%; in experiment [11] it was inactive: 51.5%; in experiment [12], inactive: 26.9%. In addition, the growth was inactive: 106% in [13]; inactive: 82.2% in experiment [14]; inactive: 98.9% in experiment [15]; inactive: 82.5% in experiment [16]; inactive: 70% in experiment [17]; inactive: 75.2% in experiment [18]. Further, the growth was inactive: 88.6% in [19] and inactive: 95% in experiment [20].
Consider `ClCCN(CCCl)Cc1ccc2c(c1)OCO2`, for which the growth is inactive: 113% in [1]; inactive: 99.1% in experiment [2]; inactive: 66.2% in experiment [3]; inactive: 85% in [4]; inactive: 110% in experiment [5]; inactive: 49.6% in experiment [6]. Further, the growth in experiment [7] was inactive: 38.1%; in [8] it was inactive: 76.4%; in experiment [9], inactive: 73.2%; in [10] it was inactive: 63.9%; in [11], inactive: 65.3%; in [12], inactive: 29.8%. For the same compound, the growth in experiment [13] was inactive: 89.8%; in experiment [14], inactive: 82.8%; in experiment [15] it was inactive: 98.7%; in experiment [16] it was inactive: 110%; in experiment [17] it was inactive: 91.1%; in experiment [18], inactive: 79.7%. Also, the growth in [19] is inactive: 105%; in [20], inactive: 95.1%.
